Results on one compound are retold here after patent US20230287044A1, “NOVEL ANTIBACTERIAL PEPTIDE AND USE THEREOF” (priority 2020, published 2023).

Each structure is given as a SMILES string. ≈ marks a conversion by molar mass, not a printed value.

In the assay the test system is MRSA (S. aureus) KCCM 40510. The class given is cell-based, Staphylococcus aureus. The settings on record: CAMHB, 37° C., 18 hours; average of three experiments. The method, then:
The minimum growth inhibitory concentrations of the antibacterial peptides of the present invention weremeasured, and the results are shown in Table 3 below.
Specifically, the strains were grown in CAMHB until the midlog phase, and then diluted with PBS buffer to 1× 10^6 cfu/ml to prepare the bacterial solution, and the antibacterial peptide prepared in Example 1above was diluted with CAMHB to 80 µM, 40 µM, 20 µM, 10 µM, 5 µM, 2.5 µM, 1.25 µM and 0.63 µM, and then the bacterial solution was treated with the same volume.
The results are the average value of three independent experiments.

Turning to `CC[C@H](C)[C@H](NC(=O)CN)C(=O)NCC(=O)N[C@@H](C)C(=O)N[C@H](C(=O)N[C@@H](CC(C)C)C(=O)N[C@@H](CCCCN)C(=O)N[C@H](C(=O)N[C@@H](CC(C)C)C(=O)N[C@H](C(=O)N[C@H](C(=O)NCC(=O)N[C@@H](CC(C)C)C(=O)N1CCC[C@H]1C(=O)N[C@@H](C)C(=O)N[C@@H](CC(C)C)C(=O)N[C@H](C(=O)N[C@@H](CO)C(=O)N[C@@H](Cc1c[nH]c2ccccc12)C(=O)N[C@H](C(=O)N[C@@H](CCCCN)C(=O)N[C@@H](CCCNC(=N)N)C(=O)N[C@@H](CCCCN)C(=O)N[C@@H](CCCNC(=N)N)C(=O)N[C@@H](CCC(N)=O)C(=O)N[C@@H](CCC(N)=O)C(N)=O)[C@@H](C)CC)[C@@H](C)CC)[C@@H](C)O)[C@@H](C)O)C(C)C)C(C)C` [Melittin, reference compound], the “MIC MRSA (S. aureus) KCCM 40510” value came to 1.25 µM (≈ 3.56 µg/mL).
